Assay results from PubChem BioAssay AID1662 (Broad Institute, 2009).
The entries are a selection whose mix differs from that of the whole data set. The source made the active and inactive calls.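 The calls were made as follows: active = mean replicate score, as percent of positive control median, at least 50; inconclusive = mean below 50 but one replicate at or above 50; inactive = mean and every replicate below 50.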

Assay: kanamycin survival loss of SKKanGAS strain – BacTiter-Glo luminescence, streptokinase expression inhibitor project, primary screen (AID 1662);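 also: strain carries kanamycin resistance gene driven by streptokinase promoter and grows in 40 µg/ml kanamycin; loss of luminescence reflects streptokinase promoter inhibition or plain growth inhibition; 0% = median of DMSO wells and 100% = positive control at its reference dose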
Details: S. pyogenes SKKanGAS, kanamycin growth, 6 h, at 7.5 µM, hits give high values

With `O=C(OC1CN2CCC1CC2)c1ccc([N+](=O)[O-])cc1` (centres undefined) as the compound, how does the inhibition read?
Its inhibition is inactive: 16.2%.

Which inhibition does the source give for `O=C(OCCN1CCN(CCOCc2ccccc2)CC1)C(O)(c1ccccc1)c1ccccc1` here?
Its inhibition is inactive: -10.8%.

For `CP(=O)(Nc1ccccc1F)Oc1ccccc1` (centres undefined), which inhibition is on record?
Its inhibition is inactive: -1.3%.

For `CC(C)c1ccc(OP(C)(=O)Nc2ccc(SC(F)(F)F)cc2)cc1` (centres undefined), which inhibition is on record?
Its inhibition is inactive: 9.74%.

For `Cc1ccc(C)c(NP(C)(=O)Oc2ccccc2)c1` (centres undefined), which inhibition is on record?
The inhibition was inactive: -1.57%.

With `CP(=O)(Nc1cccc(Br)c1)Oc1ccccc1` (centres undefined) as the compound, how does the inhibition read?
Its inhibition is inactive: -4.17%.

With `Cc1cc(C)cc(OP(C)(=O)Nc2ccccn2)c1` (centres undefined) as the compound, how does the inhibition read?
The inhibition was inactive: -13.6%.

With `CCOC(=O)c1ccc(NP(C)(=O)Oc2cc(C)cc(C)c2)cc1` (centres undefined) as the compound, how does the inhibition read?
The inhibition was inactive: -4.55%.

For `Cc1cc(C)cc(OP(C)(=O)Nc2ccc(C)cc2C)c1` (centres undefined), which inhibition is on record?
Its inhibition is inactive: -3.16%.

For `COc1ccccc1OP(C)(=O)Nc1cccc(Br)c1` (centres undefined), which inhibition is on record?
Its inhibition is inactive: -23%.

With `CC1=NCCc2c1[nH]c1ccccc21.O=[N+]([O-])c1cc([N+](=O)[O-])c(O)c([N+](=O)[O-])c1` as the compound, how does the inhibition read?
The inhibition was inactive: 5.95%.

For `O=C(O)c1cccc(Nc2c([N+](=O)[O-])cc([N+](=O)[O-])cc2[N+](=O)[O-])c1`, which inhibition is on record?
Its inhibition is inactive: 13.1%.

Which inhibition does the source give for `CP(=O)(Nc1ccc(SC(F)(F)F)cc1)Oc1ccccc1` (centres undefined) here?
The inhibition was inactive: 0.164%.

Which inhibition does the source give for `CCCOc1ccc(NP(C)(=O)Oc2ccc(Cl)cc2)cc1` (centres undefined) here?
The inhibition was inactive: 5.25%.

With `CN1CCCCC1COC(=O)C1(O)c2ccccc2CCc2ccccc21` (centres undefined) as the compound, how does the inhibition read?
The inhibition was inactive: -13.6%.

For `COc1ccccc1OP(C)(=O)Nc1c(C)cccc1C` (centres undefined), which inhibition is on record?
The inhibition was inactive: -6.64%.

With `CCOC(=O)C(CC)C1=NC(C)(C)Cc2ccccc21.O=[N+]([O-])c1cc([N+](=O)[O-])c(O)c([N+](=O)[O-])c1` (centres undefined) as the compound, how does the inhibition read?
The inhibition was inactive: 8.3%.

For `O=[N+]([O-])c1cc([N+](=O)[O-])c(Nc2nnnn2CCO)c([N+](=O)[O-])c1`, which inhibition is on record?
The inhibition was inactive: -0.484%.

For `O=[N+]([O-])c1cc([N+](=O)[O-])c(-c2cnn(-c3ccccc3)c2)c([N+](=O)[O-])c1`, which inhibition is on record?
The inhibition was inactive: 11.8%.

With `O=[N+]([O-])c1cc([N+](=O)[O-])c(-n2nnc3ccccc32)c([N+](=O)[O-])c1` as the compound, how does the inhibition read?
The inhibition was inactive: -11.9%.

Which inhibition does the source give for `CP(=O)(Nc1ccccn1)Oc1ccc(Cl)cc1` (centres undefined) here?
Its inhibition is inactive: -1.74%.

With `O=[N+]([O-])c1cc([N+](=O)[O-])c(O)c([N+](=O)[O-])c1.c1ccc(Oc2ccncc2)cc1` as the compound, how does the inhibition read?
Its inhibition is inactive: 2.84%.

For `CCOC(=O)c1ccc(NP(C)(=O)Oc2ccc(OC)cc2)cc1` (centres undefined), which inhibition is on record?
The inhibition was inactive: 1.78%.

Which inhibition does the source give for `CCOP(C)(=S)SCC(=O)NC(C)C(=O)O` (centres undefined) here?
The inhibition was inactive: -2.74%.

For `Cc1cc(C)cc(OP(C)(=O)Nc2ccc(SC(F)(F)F)cc2)c1` (centres undefined), which inhibition is on record?
Its inhibition is inactive: 2.68%.

For `CCc1ccc(OP(C)(=O)N2CCN(c3ccc([N+](=O)[O-])cc3)CC2)cc1` (centres undefined), which inhibition is on record?
Its inhibition is inactive: -12.7%.

For `CP(=O)(NC(=O)Nc1ccccc1)Oc1ccccc1` (centres undefined), which inhibition is on record?
The inhibition was inactive: -3.76%.

Which inhibition does the source give for `CP(=O)(Oc1ccccc1)OC(c1ccccc1)C(F)(F)F` (centres undefined) here?
The inhibition was inactive: -0.541%.

Which inhibition does the source give for `CP(=O)(Nc1ccc(SC(F)(F)F)cc1)Oc1ccc(Cl)cc1` (centres undefined) here?
Its inhibition is inactive: 9.03%.

Which inhibition does the source give for `Cc1cccc(C)c1OP(C)(=O)Nc1ccc(SC(F)(F)F)cc1` (centres undefined) here?
The inhibition was inactive: -1.63%.

For `CP(=O)(Nc1ccccc1Br)Oc1ccccc1` (centres undefined), which inhibition is on record?
The inhibition was inactive: 4.75%.

With `COc1ccccc1OP(C)(=O)Nc1ccccc1` (centres undefined) as the compound, how does the inhibition read?
Its inhibition is inactive: -12.1%.

Which inhibition does the source give for `CP(=S)(Nn1cnnc1)Oc1ccccc1` (centres undefined) here?
The inhibition was inactive: -9.08%.

With `Cc1cc(C)cc(OP(C)(N)=O)c1` (centres undefined) as the compound, how does the inhibition read?
Its inhibition is inactive: -4.03%.

Which inhibition does the source give for `COc1ccc(OP(C)(=O)Nc2cccc(F)c2)cc1` (centres undefined) here?
Its inhibition is inactive: -2.32%.

For `COc1ccccc1OP(C)(=O)Nc1cc(Cl)ccc1C` (centres undefined), which inhibition is on record?
The inhibition was inactive: 0.751%.

With `Cc1ccc(NP(C)(=O)Oc2ccccc2)c(C)c1` (centres undefined) as the compound, how does the inhibition read?
The inhibition was inactive: -3.19%.

With `COc1ccccc1OP(C)(=O)Nc1ccc(C)cc1` (centres undefined) as the compound, how does the inhibition read?
The inhibition was inactive: 2.43%.

With `CCOC(=O)c1ccc(NP(C)(=O)Oc2ccccc2)cc1` (centres undefined) as the compound, how does the inhibition read?
The inhibition was inactive: -0.0985%.

For `O=[N+]([O-])c1ccc2c(c1)C=Nc1ccccc1O2`, which inhibition is on record?
The inhibition was inactive: -4.64%.

Which inhibition does the source give for `Cc1cccc(C)c1OP(C)(N)=O` (centres undefined) here?
The inhibition was inactive: -1.34%.

Which inhibition does the source give for `CC(C)(C)c1ccc(OP(C)(=O)Nc2ccc(SC(F)(F)F)cc2)cc1` (centres undefined) here?
The inhibition was inactive: 13.4%.

Which inhibition does the source give for `O=[N+]([O-])c1cc([N+](=O)[O-])c(Nc2cccnc2)c([N+](=O)[O-])c1` here?
Its inhibition is inactive: 15.9%.

Which inhibition does the source give for `CCN(CC)CCCOC(=O)C(O)(c1ccccc1)c1ccccc1` here?
The inhibition was inactive: -4.31%.
